The values below come from ChEMBL document CHEMBL2321648, “Structure-based discovery of pyrazolobenzothiazine derivatives as inhibitors of hepatitis C virus replication” (J Med Chem, 2013).

Bounds are passed on as bounds.

Data set [1] deals with Hepatitis C virus. The experiment in a line: Binding affinity to Hepatitis C virus (isolate Con1) NS5B […] by surface plasmon resonance analysis. Set-up: species or system Hepacivirus hominis. In general terms: Surface plasmon resonance follows binding to a sensor surface in real time, without labels.
The test system of data set [2] is Hepatitis C virus. Nature of the data set: Inhibition of N-terminal His-tagged recombinant Hepatitis C virus subtype 1b NS5B Cdelta21 RNA dependent RNA polymerase expressed in Escherichia coli by liquid scintillation counting analysis. The essentials: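 Dose-response with 8–12 concentrations, in duplicate in two independent experiments. IC50 obtained by nonlinear regression, means ± SD.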

Data set [3] is described as follows: Selectivity index, ratio of CC50 for human HuH5.2 cells to EC50 for Hepatitis C virus subtype 1b. In kind it is toxicity. Conditions: read-out: Ratio CC50/EC50. The essentials: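 Ratio of CC50 (MTS, 72 h) to EC50 (luciferase replicon read-out), both measured in parallel in Huh 5-2 replicon cells.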

Consider `CS(=O)(=O)Nc1ccc(NC(=O)c2nn(-c3ccccc3)c3c2NS(=O)(=O)c2ccccc2-3)cc1`, for which, in data set [1], the Kd (commonly the constant that tells how readily two partners part at equilibrium) was 53 µM. That is a double-digit micromolar value. With `CC(C)CCn1c(=O)c(C2=NS(=O)(=O)c3ccccc3N2)c(O)c2ccccc21`, the IC50 (usually the concentration that gives 50% inhibition) in data set [2] is 0.085 µM. The same measure, in the same setting: the result for `CN1c2c(C(=O)Nc3ccc(NS(C)(=O)=O)cc3)nn(-c3ccc(F)cc3)c2-c2ccccc2S1(=O)=O` reads 3.9 µM. With `COC(=O)c1nn(-c2cccc(F)c2)c2c1N(C)S(=O)(=O)c1ccccc1-2`, in data set [3], the selectivity ratio came out at 2. For the same compound, the Kd in data set [1] is > 300 µM. `CS(=O)(=O)Nc1ccc(NC(=O)c2nn(-c3ccccc3[N+](=O)[O-])c3c2NS(=O)(=O)c2ccccc2-3)cc1` showed a dissociation constant Kd in data set [1] of 35 µM.
